Assay results: patent US10172831B2, “Catalytic scavengers of organophosphates to potentiate butyrylcholinesterase (hBChE) as a catalytic bioscavenger and methods for making and using them” (dated 2019)

The chains behind the UniProt entries cited, without tags or fusion partners. Where a name states a change or a piece, a line headed by the entry shows the natural chain unless it says otherwise. Residues count along the entry.
UniProt P06276, 29-602 limits assumed: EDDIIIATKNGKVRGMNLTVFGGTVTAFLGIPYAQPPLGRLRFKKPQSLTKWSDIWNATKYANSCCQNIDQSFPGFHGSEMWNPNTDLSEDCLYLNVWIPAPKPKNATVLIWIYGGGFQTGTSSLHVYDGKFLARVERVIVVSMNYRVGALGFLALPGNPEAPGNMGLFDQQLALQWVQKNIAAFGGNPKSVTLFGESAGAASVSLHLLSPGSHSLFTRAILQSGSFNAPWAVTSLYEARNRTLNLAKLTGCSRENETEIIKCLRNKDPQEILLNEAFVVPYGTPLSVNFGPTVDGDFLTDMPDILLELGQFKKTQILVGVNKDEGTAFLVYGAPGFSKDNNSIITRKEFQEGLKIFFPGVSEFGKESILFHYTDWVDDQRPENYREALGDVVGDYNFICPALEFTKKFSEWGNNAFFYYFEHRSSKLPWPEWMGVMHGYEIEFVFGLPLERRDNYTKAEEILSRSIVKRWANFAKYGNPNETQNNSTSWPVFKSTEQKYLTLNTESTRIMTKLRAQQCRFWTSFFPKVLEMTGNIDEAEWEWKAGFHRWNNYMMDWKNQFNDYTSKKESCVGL
UniProt P22303: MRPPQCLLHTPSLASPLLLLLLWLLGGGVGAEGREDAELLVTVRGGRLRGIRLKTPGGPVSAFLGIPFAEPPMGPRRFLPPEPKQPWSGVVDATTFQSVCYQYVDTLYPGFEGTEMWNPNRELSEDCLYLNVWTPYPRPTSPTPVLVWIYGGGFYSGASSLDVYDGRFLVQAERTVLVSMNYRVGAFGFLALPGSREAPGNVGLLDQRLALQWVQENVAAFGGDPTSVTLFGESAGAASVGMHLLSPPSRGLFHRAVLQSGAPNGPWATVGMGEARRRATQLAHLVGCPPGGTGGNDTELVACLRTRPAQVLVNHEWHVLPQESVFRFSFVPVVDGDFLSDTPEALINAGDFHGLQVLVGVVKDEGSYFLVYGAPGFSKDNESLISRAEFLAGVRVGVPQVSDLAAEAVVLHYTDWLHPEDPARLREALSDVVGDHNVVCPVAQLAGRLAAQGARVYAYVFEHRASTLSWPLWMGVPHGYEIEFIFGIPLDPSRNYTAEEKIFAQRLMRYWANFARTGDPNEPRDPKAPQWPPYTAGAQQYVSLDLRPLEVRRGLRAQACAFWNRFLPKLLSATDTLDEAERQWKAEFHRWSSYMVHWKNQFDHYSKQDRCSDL

How the values were obtained:
OP-hBChE conjugates [1] = biological target: T1, OP-hBChE conjugates (Homo sapiens, UniProt P06276); experiment: Reactivation of OP-hBChE conjugates by 0.67 mM oxime (first-order rate constant kobs); conditions: for reactivation rate constants (kobs), on average for the four OP-hBChE conjugates: 0.1 M phosphate buffer pH 7.4 at 37° C., sarin, cyclosarin, VX and paraoxon conjugates
OP-hBChE conjugates [2] = biological target: T1, OP-hBChE conjugates; conditions: cited from earlier work
OP-hAChE conjugates = OP-hAChE conjugates (Homo sapiens, UniProt P22303); experiment: Reactivation of OP-hAChE conjugates by 0.67 mM oxime (kobs); conditions: sarin, cyclosarin, VX, paraoxon conjugates
OP-exposed mice = conditions: in vivo; purified hBChE and TAB2OH; cited from earlier work

CC(C)CCn1ccnc1C=NO
reactivation rate constants (kobs), on average for the four OP-hBChE conjugates (OP-hBChE conjugates [1]): drastically reduced

CC(C)(C)CCn1ccnc1C=NO
reactivation rate constants (kobs), on average for the four OP-hBChE conjugates (OP-hBChE conjugates [1]): Similarly efficient

CC(CCn1ccnc1C=NO)N=[N+]=[N-] (centres unmarked)
reactivation rate constants (kobs), on average for the four OP-hBChE conjugates (OP-hBChE conjugates [1]): counterproductive for reactivation for all OPs

2-trimethylammonio-6-hydroxybenzaldehyde oxime
OP-hBChE reactivation potency of reference oximes (OP-hBChE conjugates [2]): relatively low reactivation potency | reactivation of OP conjugated hAChEs (OP-hAChE conjugates): poor OP-hAChE reactivator | protective effects of catalytic bioscavenger (hBChE plus oxime) (OP-exposed mice): relatively small

[N-]=[N+]=NCCCn1ccnc1C=NO
reactivation rate constants (kobs), on average for the four OP-hBChE conjugates (OP-hBChE conjugates [1]): counterproductive for reactivation for all OPs

C[n+]1ccn(CCCc2ccccc2)c1C=NO.[I-]
change of reactivation of cyclosarin-hBChE conjugate, imidazolium vs tertiary analogue (OP-hBChE conjugates [1]; cyclosarin inhibited hBChE): about fifty times
